Experiment [1] deals with T1, CDK9 (Homo sapiens, UniProt P50750). As to the kind of experiment: CDK9 degradation by HiBit assay, NCIH211 cells. Conditions: read-out: HiBit-NCIH211.2 DC50; NCIH211 cells with endogenously tagged N-terminal CDK9-HiBit, 24 hours incubation. Here is the method: (§1) Exemplary compounds of the invention were tested for degradation of CDK9. The compounds were tested in 10-dose DC50 duplicate mode with a 3-fold serial dilution starting at 10 μM by HiBit assay (Promega, Inc) as a direct measurement of CDK9 presence, with incubation time of 24 hours using either NCIH211 cells with endogenously tagged N-terminal CDK9-HiBit or NCIH1048 cells with endogenously tagged N-terminal CDK9-HiBit. A control compound (THAL-SNS-032, CAS 2139287-33-3) was tested in 10-dose DC50 mode with 3-fold serial dilution starting at 10 μM. Data was normalized to positive (medium only) and negative (cells with no treatment) controls and curve fits were analyzed with CDK9 as % response vs. log [compound concentration] using a 4-parameter logistic model by GraphPad software. For Table 2: A is <100, B is <1000 C is <10,000, D is >10,000 and ND is Not Determined.
(In general: HiBiT is a short tag that completes a luciferase, so light tracks the accessible tagged protein.)

Chains of the proteins cited; added tags and fusions are not shown.
UniProt P50750, whole entry: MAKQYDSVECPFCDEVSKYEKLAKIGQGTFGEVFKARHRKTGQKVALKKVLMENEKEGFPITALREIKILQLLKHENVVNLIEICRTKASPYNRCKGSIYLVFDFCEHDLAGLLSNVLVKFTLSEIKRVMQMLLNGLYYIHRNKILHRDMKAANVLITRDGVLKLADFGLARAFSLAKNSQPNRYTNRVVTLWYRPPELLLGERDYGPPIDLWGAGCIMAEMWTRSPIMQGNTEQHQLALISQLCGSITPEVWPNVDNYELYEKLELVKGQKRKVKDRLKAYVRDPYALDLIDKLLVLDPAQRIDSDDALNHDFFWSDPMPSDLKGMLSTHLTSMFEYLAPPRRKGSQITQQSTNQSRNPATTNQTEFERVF
UniProt O60563, whole entry partner: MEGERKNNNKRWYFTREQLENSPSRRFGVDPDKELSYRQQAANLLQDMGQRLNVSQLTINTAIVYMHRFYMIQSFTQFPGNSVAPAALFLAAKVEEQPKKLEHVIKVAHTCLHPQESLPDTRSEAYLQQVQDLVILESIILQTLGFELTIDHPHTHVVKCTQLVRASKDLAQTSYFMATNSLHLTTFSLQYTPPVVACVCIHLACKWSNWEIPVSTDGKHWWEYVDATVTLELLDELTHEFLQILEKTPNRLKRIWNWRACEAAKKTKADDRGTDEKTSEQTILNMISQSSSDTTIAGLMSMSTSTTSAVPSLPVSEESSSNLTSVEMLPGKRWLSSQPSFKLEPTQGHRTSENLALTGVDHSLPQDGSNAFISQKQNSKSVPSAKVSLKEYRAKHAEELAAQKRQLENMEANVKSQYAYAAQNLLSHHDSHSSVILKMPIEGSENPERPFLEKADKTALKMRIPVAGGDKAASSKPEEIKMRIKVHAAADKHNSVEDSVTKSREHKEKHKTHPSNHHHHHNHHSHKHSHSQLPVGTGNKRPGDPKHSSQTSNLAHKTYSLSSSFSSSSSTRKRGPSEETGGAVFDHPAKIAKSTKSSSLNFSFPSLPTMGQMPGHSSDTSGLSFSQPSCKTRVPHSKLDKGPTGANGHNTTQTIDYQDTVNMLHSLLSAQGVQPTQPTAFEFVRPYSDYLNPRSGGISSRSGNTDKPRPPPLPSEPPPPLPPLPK

For experiment [2], the target named is T1, CDK9. As to the kind of experiment: CDK9 degradation by HiBit assay, NCIH1048 cells. Conditions: read-out: HiBit-NCIH1048.3 DC50; NCIH1048 cells with endogenously tagged N-terminal CDK9-HiBit, 24 hours incubation. As to the method: as §1

The results in this text go back to patent US20250188084A1, “COMPOUNDS AND METHODS FOR MODULATING CDK9 ACTIVITY” (KRONOS BIO, INC., priority 2020, published 2025).

The term DC50 denotes the concentration giving 50% degradation.

Molecules are shown by their SMILES.

On to `C/C=C(\CC)c1cc(N[C@H]2CC[C@H](NCC(=O)N3CCN(CCNc4cccc5c4C(=O)N(C4CCC(=O)NC4=O)C5=O)CC3)C2)n2nccc2n1` (stereo partly drawn), for which the 50% degradation concentration (DC50) at CDK9 [1] and on CDK9 [2] was under 100 nM each time. Take `CCC(CC)c1cc(N[C@H]2CC[C@H](NCC(=O)NCc3cn(CCOCCOCCOc4cc(-c5scnc5C)ccc4CNC(=O)[C@@H]4C[C@@H](O)CN4C(=O)[C@H](C(C)C)N4Cc5ccccc5C4=O)nn3)C2)n2nccc2n1`: at CDK9 [1], the 50% degradation concentration (DC50) is over 10000 nM.
